US10166214B2, “Somatostatin receptor subtype 4 (SSTR4) agonists” (Centrexion Therapeutics Corporation, priority 2013, dated 2019)

Test: Metabolic stability in pooled human liver microsomes (half-life)
Assay type: in vitro ADME
Conditions: pH 7.6, 37° C., 1 μM test compound, read-out: Half-life t1/2
Protocol: The metabolic stability of the compounds according to the invention may be investigated as follows:
The metabolic degradation of the test compound is assayed at 37° C. with pooled human liver microsomes. The final incubation volume of 100 μl per time point contains TRIS buffer pH 7.6 at room temperature (0.1 M), magnesium chloride (5 mM), microsomal protein (1 mg/mL) and the test compound at a final concentration of 1 μM. Following a short preincubation period at 37° C., the reactions are initiated by addition of beta-nicotinamide adenine dinucleotide phosphate, reduced form (NADPH, 1 mM), and terminated by transferring an aliquot into solvent after different time points. After centrifugation (10000 g, 5 min), an aliquot of the supernatant is assayed by LC-MS/MS for the amount of parent compound. The half-life is determined by the slope of the semi-logarithmic plot of the concentration-time profile.

SMILES | half-life at 1 μM [h]
Cc1nnc(C(C)(C)NC(=O)[C@H]2[C@@H]3CNC[C@@H]32)c2ccccc12 [Example 77] | > 2.17
CC(C)(NC(=O)[C@H]1[C@@H]2CNC[C@@H]21)c1ncnc2ccccc12 [Example 89] | > 2.17
CC(C)(NC(=O)[C@H]1[C@@H]2CNC[C@@H]21)c1cncc2ccccc12 [Example 90] | > 2.17
Cc1cccc2c(C(C)(C)NC(=O)[C@H]3[C@@H]4CNC[C@@H]43)noc12 [Example 92] | > 2.17
CC(C)(NC(=O)[C@H]1[C@@H]2CNC[C@@H]21)c1noc2c(Cl)cccc12 [Example 103] | > 2.17
CC(C)(NC(=O)[C@H]1[C@@H]2CNC[C@@H]21)c1noc2c(C3CC3)cccc12 [Example 104] | > 2.17
